The test system of data set [1] is T1, F-S-R-AMC fluorogenic substrate.
T1 sequence: FSR

Data set [2] has as its system T2, V-P-R-AMC fluorogenic substrate.
T2 sequence: VPR

From patent publication US20060159616 come the findings set out here.

As to Trypsin, the “cleavage of fluorogenic substrate” value in data set [1] is “Trypsin was highly active with both fluorogenic substrates, even at amounts as low as 1 ng”; in data set [2], “Trypsin was highly active with both fluorogenic substrates, even at amounts as low as 1 ng”.
